The chains behind the UniProt entries cited, without tags or fusion partners.
UniProt P21453, whole entry: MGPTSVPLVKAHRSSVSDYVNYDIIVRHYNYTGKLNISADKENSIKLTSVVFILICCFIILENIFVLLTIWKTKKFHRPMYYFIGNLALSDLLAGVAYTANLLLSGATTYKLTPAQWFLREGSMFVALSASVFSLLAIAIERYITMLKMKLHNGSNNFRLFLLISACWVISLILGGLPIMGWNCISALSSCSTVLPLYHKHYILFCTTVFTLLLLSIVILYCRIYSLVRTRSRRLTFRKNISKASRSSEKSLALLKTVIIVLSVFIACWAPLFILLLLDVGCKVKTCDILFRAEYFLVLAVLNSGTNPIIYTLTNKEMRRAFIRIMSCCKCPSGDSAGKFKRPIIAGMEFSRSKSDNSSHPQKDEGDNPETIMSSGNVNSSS

Each compound was assayed against human S1P1 receptor (Homo sapiens, UniProt P21453) (assay: GTP γ35S binding assay for S1P1 activity). Settings: read-out: S1P1 EC50, membranes of cells stably expressing the S1P1 receptor, test concentrations 0.08 to 5,000 nM.
Procedure: Compounds were synthesized and tested for S1P1 activity using the GTP γ^35S binding assay. These compounds may be assessed for their ability to activate or block activation of the human S1P1 receptor in cells stably expressing the S1P1 receptor.
GTP γ^35S binding was measured in the medium containing (mM) HEPES 25, pH 7.4, MgCl2 10, NaCl 100, dithitothreitol 0.5, digitonin 0.003%, 0.2 nM GTP γ^35S, and 5 μg membrane protein in a volume of 150 μl. Test compounds were included in the concentration range from 0.08 to 5,000 nM unless indicated otherwise. Membranes were incubated with 100 μM 5′-adenylylimmidodiphosphate for 30 min, and subsequently with 10 μM GDP for 10 min on ice. Drug solutions and membrane were mixed, and then reactions were initiated by adding GTP γ^35S and continued for 30 min at 25° C. Reaction mixtures were filtered over Whatman GF/B filters under vacuum, and washed three times with 3 mL of ice-cold buffer (HEPES 25, pH7.4, MgCl2 10 and NaCl 100). Filters were dried and mixed with scintillant, and counted for ^35S activity using a β-counter. Agonist-induced GTP γ^35S binding was obtained by subtracting that in the absence of agonist. Binding data were analyzed using a non-linear regression method. In case of antagonist assay, the reaction mixture contained 10 nM S1P in the presence of test antagonist at concentrations ranging from 0.08 to 5000 nM.
Compound `Cc1ccc(SC(c2ccc(Cl)cc2)c2nc(-c3ccc(CNCCC(=O)O)cc3)no2)cc1C` (stereo not drawn) has an EC50 of 1.24 µM.
For `Cc1ccc(OC(c2cccc(Cl)c2)c2nc(-c3ccc(CNCCC(=O)O)cc3)no2)cc1C` (stereo not drawn), the EC50 was 0.134 µM.
Work on `Cc1ccc(SC(c2cccc(Cl)c2)c2nc(-c3ccc(CNCCC(=O)O)cc3)no2)cc1C` (stereo not drawn) yielded an EC50 of 0.0767 µM.
